The values below are quoted from earlier work in EP4729597A1, “LOW-ALCOHOL BEER-LIKE BEVERAGE AND METHOD FOR PRODUCING LOW-ALCOHOL BEER-LIKE BEVERAGE” (Asahi Group Holdings, Ltd., priority 2023, dated 2024).

A word on the LogP: it is a log measure of how a compound divides between an organic and an aqueous phase.

The structures appear in SMILES notation. Where two headings read alike, the source gives them in different places.

`C=CC(C)(O)CCC=C(C)C` (centres unmarked) [Linalool]: the LogP is 3.0 (Table 1, octanol/water partition coefficient) and 3.0 (Table 3).
